The record followed here is PubChem BioAssay AID651725 (National Center for Advancing Translational Sciences (NCATS), 2012).

Chains of the proteins cited; added tags and fusions are not shown.
UniProt Q15475, whole entry: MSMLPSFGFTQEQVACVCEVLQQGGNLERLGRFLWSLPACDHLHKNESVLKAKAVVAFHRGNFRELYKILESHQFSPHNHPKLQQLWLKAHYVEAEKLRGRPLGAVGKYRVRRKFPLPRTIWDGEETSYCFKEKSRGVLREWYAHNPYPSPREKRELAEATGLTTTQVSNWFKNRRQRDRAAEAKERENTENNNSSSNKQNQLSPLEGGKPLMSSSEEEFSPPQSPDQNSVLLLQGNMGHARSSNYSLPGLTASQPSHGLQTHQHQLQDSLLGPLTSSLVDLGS

This is a selection; strong and weak results do not stand in their true shares. Some tests of the compounds listed are not included; inactive here does not mean inactive elsewhere. Calls of active or inactive are those of the source. Cut-off read from the data, not from the text of the source: active = activity change below about -65%; inconclusive = mostly about -30% to -63%; inactive = weaker than that.
% is set by controls: 0 for no effect and ±100 for the full control effect.

In the assay the target is Homeobox protein SIX1 (Homo sapiens) + Protein phosphatase EYA2 (Homo sapiens) (UniProt Q15475+O00167). In words: qHTS Assay for Inhibitors of the Six1/Eya2 Interaction. Particulars: AlphaScreen GST-Six1/His-Eya2 binding, biochemical; active compounds read low. From the text:
Its expression is low or undetectable in normal adult breast tissue but the gene is over-expressed in 50% of primary breast tumors and 90% of metastatic lesions. […] Similar to Six1, Eya2 is also not expressed in most normal adult tissues, but is reexpressed in cancers. The Six1-Eya interaction is essential for proliferation during embryonic development, and both Six1 and Eya2 have been independently implicated in the same types of cancer. Because Six1 and Eya2 are embryonic genes with little expression in adult tissues, inhibitors of their expression/activity are likely to have limited side effects. Our goal is to identify inhibitors of the Six1/Eya interaction for potential cancer therapy. To this end, we have developed a homogenous AlphaScreen assay targeting the Six1/Eya interaction. We performed a large scale HTS of the Molecular Libraries Small Molecule Repository (MLSMR) to identify inhibitors of the Six1/Eya interaction as potential anti-cancer therapeutics. Compounds identified can also be used as chemical probes to better understand the biological functions of Six1 and Eya. NIH Chemical Genomics Center [NCGC] NIH Molecular Libraries Probe Centers Network [MLPCN] MLPCN Grant: DA033147 Assay Submitter (PI): Rui Zhao, University of Colorado Denver
The first step of the 5 uL AlphaScreen assay is to dispense assay buffer (50 mM Tris, pH 8.0, 300 mM NaCl, 0.05% BSA, 0.02% Tween 20, 1 mM TCEP) into a Greiner 1536 white solid bottom microtiter plate (789175-F). Five microliters is added to Column 1, 4 uL is added to Column 2 and 3 uL is added to Columns 3 through 48. A 5X protein solution (250 nM GST-Six1 protein + 500 nM His-tagged Eya2 protein) is mixed and 1 uL is dispensed to Columns 3-48. Using a 1536 pintool, 23 nL of compound is transferred to the assay plate. A solution of 5X AlphaScreen beads is mixed (50 ug/mL Glutathione linked donor beads + Nickel chelated acceptor beads) and 1 uL is dispensed to Columns 2-48. The assay plate is incubated for one hour, with a lid, at 37 deg C in the dark. The plate is read using a Perkin Elmer Envision using an AlphaScreen protocol.
As to `COc1ccc(Br)c(C(=O)NCC2(N3CCCCC3)CCCCC2)c1`, the activity change is inactive: -0.876%. To `C=C(C)C#CC(O)(C(=O)OC1CCN(C)CC1)c1ccccc1` (stereo unspecified) belongs inactive: 12.7%; to `CN(C)c1cccc(C(=O)NCC2(N(C)C)CCCCC2)c1`, inactive: -15.4%; to `O=C(OCCN1CCCC1)C(O)(c1ccccc1)c1ccccc1`, inactive: -5.46%.

Turning to `CC(C)Oc1ccc(C(=O)NCC2(N(C)C)CCCCC2)cc1`, the activity change is inactive: 5.63%.

On to `O=C(OC1CN2CCC1CC2)C(CO)(c1ccccc1)c1ccccc1` (stereo unspecified), for which the activity change was inactive: 10.8%. The same measure for `COc1ccc(Cl)cc1C(=O)NCC1(N(C)C)CCCCC1`: inactive: -4.35%; for `COc1cccc(C(=O)NCC2(N3CCCCC3)CCCCC2)c1`: inactive: 8.45%; for `O=C(NCC1(N2CCCCC2)CCCCC1)c1cccc(Cl)c1`: inactive: -8.54%. As for `CN(C)C1(CNC(=O)c2ccc(Br)cc2)CCCCC1`, the activity change was inactive: -3.23%. As for `COc1cc(C(=O)NCC2(N(C)C)CCCCC2)c([N+](=O)[O-])cc1OC`, the activity change is inactive: 7.6%. To `O=C(NCC1(N2CCCCC2)CCCCC1)c1cc(F)c(F)cc1Cl` belongs inactive: -1.07%; to `C=CCN1CCN(CCOC(=O)C(O)(c2ccccc2)c2ccccc2)CC1`, inactive: 5.33%. To `O=C(NCC1(N2CCCCC2)CCCCC1)c1cccc(Br)c1` belongs inactive: -0.621%; to `Cc1cc(C(=O)NCC2(N3CCCCC3)CCCCC2)ccc1[N+](=O)[O-]`, inactive: 12.7%. The same measure for `CCN1CCCC(OC(=O)C2(O)c3ccccc3C=Cc3ccccc32)C1` (stereo unspecified): inactive: 4.15%; for `COc1ccc(C(=O)NCC2(N(C)C)CCCCC2)cc1`: inactive: 4.08%; for `CN(C)C1CCCC1OC(=O)C(O)(c1ccccc1)c1ccccc1` (stereo unspecified): inactive: 0%.

Regarding `CN(C)c1ccc(C(=O)NCC2(N(C)C)CCCCC2)cc1`, the activity change is inactive: 6.15%. To `Cc1ccccc1C(=O)NCC1(N2CCCCC2)CCCCC1` belongs inactive: 2.36%. To `CC(C)N1C(=O)CC2(CCN(CCOC(=O)C(O)(c3ccccc3)c3ccccc3)CC2)C1=O` belongs inactive: -1.7%; to `COc1cc(SC)ccc1C(=O)NCC1(N(C)C)CCCCC1`, inactive: 15.5%. For `CCN(CC)CC(C)C(C)OC(=O)C(O)(c1ccccc1)c1ccccc1` (stereo unspecified), the activity change was inactive: 0.954%.

Regarding `Cc1ccc(C(=O)NCC2(N3CCCCC3)CCCCC2)cc1`, the activity change was inactive: -0.764%.

In the case of `O=C(NCC1(N2CCCCC2)CCCCC1)c1cc([N+](=O)[O-])ccc1Cl`, the activity change was inactive: -1.52%.

For the molecule `CN1[C@@H]2CC[C@H]1CC(OC(=O)C(O)(c1ccccc1)c1ccccc1)C2` (stereo partly specified), the activity change is inactive: 2.43%.
